Assay: Index of bioavailability (% Relative Activity, plasma TT AUC oral vs i.v.)
Assay type: in vivo
Settings: dose-adjusted AUC of plasma TT, p.o. vs i.v. bolus

Substance	% oral/i.v. activity (Rat) [%]
1-Piq-Pro-p-NHCH2 C6 H4 C(NH)NH2.2HCl [Example 18]	12
D-hPro-Pro-p-NHCH2 C6 H4 C(NH)NH2.HCl [Example 17]	15
EtSO2 -D-Phe-Pro-p-NHCH2 --C6 H4 C(=NH)NH2.HCl [Example 23]	12

From patent US5707966A, “Antithrombotic agents” (Eli Lilly and Company, priority 1995, dated 1998)
